System: NCCc1c[nH]cn1
Experiment: purified protein
Conditions: apparent, 25 mM potassium phosphate pH 6.8, 37 °C, 0.05-3.1 mM histamine, partially purified enzyme

**Q.** For DAO-GH (Glutamicibacter halophytocola), which Km is on record?
**A.** 900 ± 70 µM

Reference: paper PMC12427885 (Foods, 2025)
